Reference: patent publication US7166435B2 (priority 2001, dated 2007)

How the values were obtained:
[1] = system: Influenza A/Sydney/5/97 [H3N2]; experiment: Efficacy of nasal spray as treatment of H3N2 influenza infection in ferrets; assay type: in vivo, ferret; conditions: infected ferrets treated daily for 4 days
[2] = system: Influenza A/Sydney/5/97 [H3N2]; experiment: Ferret transmission study (infected donor treated)
[3] = system: Influenza A/Sydney/5/97 [H3N2]; experiment: Ferret prophylaxis study (uninfected recipients treated)
[4] = four-fold rise in anti HAI antibodies, day 24 post infection
[5] = nasal washes titrated on MDCK cells
[6] = four-fold increase in HAI antibodies, day 24 post infection

CCOC(=O)C1=C[C@@H](OC(CC)CC)[C@H](NC(C)=O)[C@@H](N)C1 [Tamiflu ™, oseltamivir phosphate] was tested. Which “reduction of illness (weight loss, fever, clinical symptoms)” value [1] did it give?
The value was “effective at reducing weight loss, fever, and clinical symptoms”.

And the “Mean Maximum Health Score” value [2]?
Its value is “.7500”.

And the “Mean Total Health Score (sum of health scores post infection)” value [2]?
Its value is “.5000”.

And the “maximum health score, p versus placebo group” value [2]?
Its value is 0.003.

What about the “weight loss (mean maximum weight change post infection), p versus placebo group” value [2] of the same compound?
The value was 0.019.

What about the “Percentage of animals with nasal symptoms of influenza (donor animals excluded)” value ([2]; Day 1) of the same compound?
The value was 0%.

What about the “Percentage of animals with reduced physical activity (donor animals excluded)” value ([2]; Day 1) of the same compound?
Its value is 0%.

And the “Percentage of animals with nasal symptoms of influenza (donor animals excluded)” value ([2]; Day 2)?
Its value is 12.5%.

What about the “Percentage of animals with reduced physical activity (donor animals excluded)” value ([2]; Day 2) of the same compound?
Its value is 0%.

What about the “Percentage of animals with reduced physical activity (donor animals excluded)” value ([2]; Day 3) of the same compound?
Its value is 0%.

What about the “Percentage of animals with nasal symptoms of influenza (donor animals excluded)” value ([2]; Day 4) of the same compound?
The value was 50%.

And the “Percentage of animals with reduced physical activity (donor animals excluded)” value ([2]; Day 4)?
The value was 0%.

What about the “Percentage of animals with nasal symptoms of influenza (donor animals excluded)” value ([2]; Day 4, listed as Tamiflu™) of the same compound?
Its value is 50%.

And the “Percentage of animals with nasal symptoms of influenza (donor animals excluded)” value ([2]; Day 5)?
The value was 0%.

And the “Percentage of animals with reduced physical activity (donor animals excluded)” value ([2]; Day 5)?
The value was 0%.

What about the “Percentage of animals with nasal symptoms of influenza (donor animals excluded)” value ([2]; Day 6) of the same compound?
The value was 12.5%.

What about the “Percentage of animals with reduced physical activity (donor animals excluded)” value ([2]; Day 6) of the same compound?
Its value is 12.5%.

And the “# of animals seroconverted” value [2, 4]?
Its value is 8/8.

What about the “Percentage of animals seroconverted” value [2, 4] of the same compound?
The value was 100%.

And the “# of animals shedding virus on day 6” value [2, 5]?
Its value is 8/8.

What about the “Percentage of animals shedding virus on day 6” value (from here on “Percentage … on day 6”) [2, 5] of the same compound?
The value was 100%.

And the “total health score, p versus placebo group” value ([2]; t-test, Bonferroni correction)?
The value was 0.03.

And the “mean virus shedding, p Tamiflu treated group versus QR435 treatment group” value ([2]; t-test, Bonferroni correction, Tamiflu group shed significantly more virus)?
Its value is 0.04.

What about the “mean virus shedding, p versus placebo treatment group” value ([2]; t-test, Bonferroni correction, group shed significantly more virus) of the same compound?
Its value is 0.021.

What about the “Mean Maximum Health Score” value [3] of the same compound?
The value was “.3750”.

What about the “Mean Total Health Score (sum of health scores post infection)” value [3] of the same compound?
The value was “.5000”.

And the “Percentage of animals with nasal symptoms of influenza (donor animals excluded)” value ([3]; Day 1)?
The value was 0%.

And the “Percentage of animals with reduced physical activity (donor animals excluded)” value ([3]; Day 1)?
The value was 0%.

What about the “Percentage of animals with nasal symptoms of influenza (donor animals excluded)” value ([3]; Day 2) of the same compound?
Its value is 0%.

What about the “Percentage of animals with reduced physical activity (donor animals excluded)” value ([3]; Day 2) of the same compound?
Its value is 0%.

What about the “Percentage of animals with nasal symptoms of influenza (donor animals excluded)” value ([3]; Day 3) of the same compound?
Its value is 25%.

And the “Percentage of animals with reduced physical activity (donor animals excluded)” value ([3]; Day 3)?
Its value is 0%.

And the “Percentage of animals with nasal symptoms of influenza (donor animals excluded)” value ([3]; Day 3, listed as Tamiflu™)?
Its value is 25%.

What about the “Percentage of animals with nasal symptoms of influenza (donor animals excluded)” value ([3]; Day 4) of the same compound?
Its value is 0%.

And the “Percentage of animals with reduced physical activity (donor animals excluded)” value ([3]; Day 4)?
The value was 0%.

And the “Percentage of animals with nasal symptoms of influenza (donor animals excluded)” value ([3]; Day 5)?
The value was 0%.

And the “Percentage of animals with reduced physical activity (donor animals excluded)” value ([3]; Day 5)?
The value was 0%.

What about the “Percentage of animals with nasal symptoms of influenza (donor animals excluded)” value ([3]; Day 6) of the same compound?
Its value is 12.5%.

What about the “Percentage of animals with reduced physical activity (donor animals excluded)” value ([3]; Day 6) of the same compound?
The value was 0%.

What about the “# of animals seroconverted” value [3, 6] of the same compound?
The value was 8/8.

And the “Percentage of animals seroconverted” value [3, 6]?
Its value is 100%.

What about the “# of animals shedding virus on day 6” value [3, 5] of the same compound?
The value was 7/8.

And the “Percentage … on day 6” value [3, 5]?
Its value is 87.5%.

What about the “Percentage … on day 6” value ([3]; nasal washes titrated on MDCK cells, listed as Tamiflu™) of the same compound?
Its value is 87.5%.

And the “weight loss (maximum weight change), p versus placebo treatment group” value ([3]; t-test, Bonferroni correction)?
Its value is 0.019.
